Among the data in patent US20070155882A1, “Curable liquid composition, cured film, and antistatic laminate” (priority 2003, published 2007) are solubility in solvent values, retold here.

A short description of this data set: Solubility of compound (B) in solvent (solid content of saturated solution).

Regarding “tricyclodecanediyldimethanol di(meth)acrylate”, the solubility in solvent result (solvent: water) is given as “less than 0.1 wt %”.

For dipentaerythritol hexa(meth)acrylate, the solubility in solvent reads like this: (solvent: hexane) 0.3 wt %; (solvent: water) “less than 0.1 wt %”.

For the substance trimethylolpropane tri(meth)acrylate, the solubility in solvent result (solvent: water) is on record as “less than 0.1 wt %”.

As for “tris(2-hydroxyethyl)isocyanurate tri(meth)acrylate”, the solubility in solvent is given as 8 wt % (solvent: 1-propanol); 2 wt % (solvent: EtOH (ethanol)); 7 wt % (solvent: IPA (isopropyl alcohol)); 6 wt % (solvent: n-butanol); 1 wt % (solvent: water).
